Apparent affinities of Ab-95 variants for a coronavirus HR2 peptide

All variants were tested on one target, the spike HR2 peptide PDVDLGDISGINAS (SARS-CoV-2).

The variants keep the heavy chain, the linker and the frameworks of Ab-95 (scFv order VH, a (GGGGS)3 linker, VL).
VH: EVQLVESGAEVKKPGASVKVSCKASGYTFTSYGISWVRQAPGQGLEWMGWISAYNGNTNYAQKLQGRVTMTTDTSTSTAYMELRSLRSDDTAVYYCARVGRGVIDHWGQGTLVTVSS
VL: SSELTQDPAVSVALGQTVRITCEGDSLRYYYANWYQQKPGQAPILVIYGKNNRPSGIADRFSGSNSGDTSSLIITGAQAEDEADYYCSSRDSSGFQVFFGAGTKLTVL

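The parent was found by panning a naive human phage display library on the peptide. Library AAYL52 holds single substitutions and randomly drawn double and triple substitutions in the CDRs. The assay is AlphaSeq: two haploid yeast populations carry antibody and antigen on their surface. Binding brings cells together so that they mate, and sequencing counts the barcode pairs among the diploids. Read counts were normalised to the haploid input and turned into Kd by a linear fit to BCL2-family pairs of known affinity, for each replicate. Each pool was mated in three replicate cultures.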

The parent's light chain CDRs are EGDSLRYYYAN, GKNNRPS, SSRDSSGFQVF; each variant's own CDRs replace them letter for letter.
Affinities are written as log10 Kd with Kd in nM; a lower number is a better binder.
An entry "nd" has no value in the source: the pair was not observed among the diploids in that replicate. This suggests poor binding but is not conclusive.
Empty control strains, which show no peptide, gave a signal in 28% of pairings with library AAYL52; the median was 3.91 and 95% of these signals were weaker than 2.90. No background was subtracted. The control count says in how many pairings with the empty strains this scFv gave a signal, with their mean in brackets.
Parent in this assay: reference entry 2.31, copy in this library 2.25.

CDR-L1,CDR-L2,CDR-L3,"replicates, log10 nM",control signals
EGDSLRHYYAN,GKNNRCS,SSRDSIGFQVF,nd nd nd,1 of 9 (5.23)
EGDSLRYYYAN,GLNNFPS,SLRDSSGFQVF,nd nd nd,0 of 9
EEDSLRYYYAN,GKNNRPS,SSRDSSGWQVF,2.55 2.92 2.83,4 of 9 (4.18)
DGDSLRYYYAT,RKNNRPS,SSRDSSGFQVF,4.96 nd 4.22,4 of 9 (4.15)
EGDNLPYYYAN,GKNNRPS,SSRDSSGFQHF,nd nd nd,0 of 9
EGDSLRYYYAN,GTNNRPS,SSRDSSGFQTR,2.81 2.57 2.93,3 of 9 (3.91)
EGDSLRYYYAN,GFNNSPS,SSRDSSGFQVG,3.65 nd 3.68,3 of 9 (3.62)
EDDSLRYYYAN,GKNNRPS,SWRDSKGFQVF,4.14 nd 3.51,1 of 9 (3.73)
EGDELRYYYAN,GKNNRPS,LSRDSSGFQYF,nd nd nd,2 of 9 (3.42)
EGDSLRYYFAN,GKNNRPS,SSRDSSGAQVP,3.09 2.98 2.68,3 of 9 (3.73)
EGDSLRYYYAN,GKNTRPS,SSRISSGFQVH,nd nd 3.51,2 of 9 (4.37)
EGDSLRYYYAN,GKHNRPS,ESRDSAGFQVF,4.14 nd nd,5 of 9 (3.27)
EYDSLRYYTAN,GKNNRPS,SSRDSSGFQPF,3.65 5.14 nd,0 of 9
EGDSLRYYYAN,GKNNEPS,SSRDSDGRQVF,3.10 3.30 nd,1 of 9 (3.86)
EHDSLRYYYAN,GKNERPS,SSRDMSGFQVF,2.72 2.04 2.79,1 of 9 (3.01)
EGCSLSYYYAN,GKNNRPS,SSRKSSGFQVF,4.11 nd nd,2 of 9 (3.57)
EGDSHREYYAN,GKNNRPS,WSRDSSGFQVF,5.34 nd nd,3 of 9 (3.71)
EGDSLRQYYAP,GVNNRPS,SSRDSSGFQVF,nd 3.32 nd,4 of 9 (3.27)
EADSLRYYYAN,CKNNRPS,SSRDSVGFQVF,nd 5.63 nd,5 of 9 (4.17)
EGDSLRYYYAA,GKNNRKS,SSGDSSGFQVF,3.68 nd 4.48,1 of 9 (3.16)
EGDSLRYYYAN,GKVYRPS,SSRQSSGFQVF,4.69 4.44 nd,3 of 9 (3.66)
SGDSLRYYYAN,GKNNRPS,SSRDTSGNQVF,2.68 2.52 2.90,2 of 9 (3.67)
EDDSLRYYYAN,GKNSRPS,GSRDSSGFQVF,3.00 3.50 nd,3 of 9 (4.10)
ERDKLRYYYAN,GKNNRPS,SSRDSSGFQRF,nd nd nd,0 of 9
EPDSLRYHYAN,GKNNRPS,SSRDSSGFGVF,nd nd nd,3 of 9 (3.91)
EGDPLRYYYAN,GANNRPS,RSRDSSGFQVF,3.21 3.78 3.02,3 of 9 (3.68)
EGDSLREYYEN,GKNNRPS,SSQDSSGFQVF,nd 3.46 nd,2 of 9 (3.81)
FGDSLRYYYAN,GRNNTPS,SSRDSSGFQVF,3.48 3.16 4.16,3 of 9 (4.15)
ELDSLRYYYAN,GKNNRPS,SSTDSSGFQWF,3.54 nd 4.35,5 of 9 (3.86)
EGDSLRYYYAN,GKNNRPS,SSRDSHGKNVF,3.39 nd nd,1 of 9 (4.22)
EGDSLRYMRAR,GKNNRPS,SSRDSSGFQVF,nd 5.28 nd,3 of 9 (3.77)
QGDSLRYYYAY,GKNNRPI,SSRDSSGFQVF,nd nd nd,3 of 9 (4.01)
EGDELRYYYAN,GKNNEPS,SSRNSSGFQVF,5.36 nd nd,3 of 9 (3.90)
EGDCLKYYYAN,GKNNRPS,SSRDSSHFQVF,3.63 nd 3.41,6 of 9 (4.32)
EGDSLRYIYAN,GKNNRPS,SSRDSSHFSVF,nd nd nd,2 of 9 (3.67)
EGDSLRYYYAN,GKCNRGS,SSRDSSGFQVH,4.25 nd 4.16,1 of 9 (4.27)
EGHSLRYYYAN,GKNNRPN,SSRDSSGFQVF,2.53 2.41 2.22,5 of 9 (3.74)
MGDSLRYYYAN,GKLNRPS,SSRDSFGFQVF,4.93 nd nd,6 of 9 (3.82)
EGDQLRYYYAN,GNNNRPS,SSRESSGFQVF,4.57 2.83 3.35,2 of 9 (4.11)
PGDNLRYYYAN,GKNNRPS,LSRDSSGFQVF,3.65 4.15 nd,0 of 9
EGDSLRPDYAN,GKNNRPS,SSRDSSGFMVF,2.97 2.60 2.47,2 of 9 (3.41)
AGDSLRYYYAN,GKENRPS,SSYDSSGFQVF,nd nd nd,4 of 9 (4.13)
EGDSLRYYYAN,GKNNRPS,DSRDSSGFQKF,2.68 2.89 2.25,1 of 9 (4.79)
EGDQLRYYTAN,GKNNRPS,SSRDSSGFQVF,2.44 3.19 2.17,2 of 9 (3.62)
EGDSLRYYYAN,FKNNRPS,SSRDSSAFQVD,nd nd nd,0 of 9

Excerpt, the first 4 entries:

CDR-L1	CDR-L2	CDR-L3	replicates, log10 nM	control signals
EGDSLRHYYAN	GKNNRCS	SSRDSIGFQVF	nd nd nd	1 of 9 (5.23)
EGDSLRYYYAN	GLNNFPS	SLRDSSGFQVF	nd nd nd	0 of 9
EEDSLRYYYAN	GKNNRPS	SSRDSSGWQVF	2.55 2.92 2.83	4 of 9 (4.18)
DGDSLRYYYAT	RKNNRPS	SSRDSSGFQVF	4.96 nd 4.22	4 of 9 (4.15)

Reference: Engelhart et al. 2022, doi:10.1038/s41597-022-01779-4. File: FLAb, binding data.